According to ChEMBL document CHEMBL1142681, “Three-dimensional structure-activity relationships of nonsteroidal ligands in complex with androgen receptor ligand-binding domain” (J Med Chem, 2005):

Molecular target: T1, Androgen receptor (Rattus norvegicus, UniProt P15207)
T1 sequence (P15207 whole entry): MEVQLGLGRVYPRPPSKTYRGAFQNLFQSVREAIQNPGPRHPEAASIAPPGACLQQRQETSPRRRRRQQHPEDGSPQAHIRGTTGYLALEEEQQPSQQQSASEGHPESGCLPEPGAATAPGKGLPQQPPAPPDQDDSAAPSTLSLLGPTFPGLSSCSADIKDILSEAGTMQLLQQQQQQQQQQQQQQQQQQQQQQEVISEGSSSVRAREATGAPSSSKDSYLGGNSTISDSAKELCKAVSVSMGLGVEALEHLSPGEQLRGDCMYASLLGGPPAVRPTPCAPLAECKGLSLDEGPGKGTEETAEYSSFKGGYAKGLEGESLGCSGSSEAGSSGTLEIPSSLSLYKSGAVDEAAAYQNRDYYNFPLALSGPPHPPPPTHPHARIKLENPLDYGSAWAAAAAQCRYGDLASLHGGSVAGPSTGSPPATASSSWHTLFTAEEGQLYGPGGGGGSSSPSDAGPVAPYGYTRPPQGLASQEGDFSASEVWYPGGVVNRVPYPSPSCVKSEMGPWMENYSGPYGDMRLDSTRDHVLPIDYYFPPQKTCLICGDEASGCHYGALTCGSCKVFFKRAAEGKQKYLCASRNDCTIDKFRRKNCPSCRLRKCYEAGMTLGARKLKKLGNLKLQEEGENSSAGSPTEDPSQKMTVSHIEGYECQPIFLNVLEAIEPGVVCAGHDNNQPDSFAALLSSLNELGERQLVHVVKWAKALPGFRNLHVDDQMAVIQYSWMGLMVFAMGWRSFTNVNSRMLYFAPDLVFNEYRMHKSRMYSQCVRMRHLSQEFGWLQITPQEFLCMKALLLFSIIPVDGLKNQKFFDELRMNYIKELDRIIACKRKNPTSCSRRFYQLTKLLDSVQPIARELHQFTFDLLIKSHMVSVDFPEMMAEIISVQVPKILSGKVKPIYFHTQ

Row | SMILES | Ki
1 | C[C@](O)(CSc1ccc(F)cc1)C(=O)Nc1ccc2c(C(F)(F)F)cc(=O)oc2c1 | 339 nM
2 | Cc1cc(=O)oc2cc(NC(=O)[C@@](C)(O)CBr)ccc12 | 275 nM
